The nature of data set [1]: Stability of D- and L-amino acid peptide in human serum. Format: in vitro ADME. The following applies: 0%, 2%, 5% or 10% human serum over 60 minutes. The method, then: The effect of D-amino acids on the stability of antimicrobial peptide in human serum was studied. An exemplary antimicrobial peptide, P297, was used in this study. (D)-P297 contains all D-amino acids and (L)-P297 contains all L-amino acids. The percentages of remaining intact peptides were measured either in the absence of human serum, or in the presence of 2%, 5%, or 10% human serum, over a period of 60 minutes.

In a further data set the test system is red blood cells. The data set is described as follows: Red blood cell hemolysis assay (MLC, PLC). The following applies: for PLC: hemolytic activity. Format: cell-based.

For the substance “GGGKFFRKLKKSVKKRAKEFFKKPRVIGVSIPF [(L)-P297]”, in data set [1], the “stability in human serum (remaining intact peptide)” value is “degraded rapidly (and completely under certain testing conditions)”. On to “GAFGNFLKGVAKKAGLKILSIAQCKLFGTC [peptide 70]”, for which the “PLC” value with red blood cells stood at 8 µg/mL. For the substance “GGGKFFRKLKKSVKKRAKEFFKKPRVIGVSIPF [(D)-P297]”, the “stability in human serum (remaining intact peptide)” value in data set [1] was “considerably more stable than (L)-P297”. On to “GIGKFLKKAKKFGKAFVKILKKGGGGSGGGGS [peptide 24]”, for which, in the data set with red blood cells, the “PLC” value was 512 µg/mL. Still for that read-out and setting: under KKLLKWLKKLL [peptide 126] stands 640 µg/mL. For the substance “GGG-D-Dab-cyclic(L-Dab-L-Dab-D-Leu-L-Phe-L-Dab-L-Dab-L-Leu) [GGG-Octapeptin]”, the “Hemolysis PLC” value in the data set with red blood cells (concentration that led to 50% red blood cell lysis) is more than 128 µg/mL. The “Hemolysis MLC” value with red blood cells (concentration that led to 100% red blood cell lysis) was more than 128 µg/mL. In the data set on red blood cells (ratio of MLC to MIC), the MLC/MIC is more than 64. The PLC/MIC in the data set on red blood cells (ratio of PLC to MIC) was more than 64.

With ALWKTLLKKVLKAAAKGGGGSGGGGS [peptide 30], the “PLC” value in the data set on red blood cells is 512 µg/mL.
